According to patent US20110224182A1, “SALTS OF (3-0-(3',3'-[…]) BETULINIC ACID AND SOLID STATE FORMS THEREOF” (Myriad Pharmaceuticals, Incorporated, priority 2007, published 2011):

Test: Solubility (Method B): solvent added in portions until a clear solution is obtained
Format: physicochemical
Settings: water solubility versus free acid
Protocol: Method B-Solubility Measurement of the water solubility of the salts of this invention is accomplished by using methods well known to those skilled in the art. Specifically, to a weighed amount of DSB (+)-[…], DSB choline […], DSB diethanolamine […], or DSB diethylamine […], a solvent is added in small portions until a clear solution is obtained. The total volume of the solution is measured. The solubility of the particular DSB salt, in mg/mL, is calculated by dividing the weight of the salt (in mg), by the volume of the solution (in mL).

bis-choline salt of DSB [DSB-2 Choline]
Increase in solubility as compared to the DSB free acid: greater than 16 fold
